Earlier results as cited in article PMC8307404, “Crystal Structure-Guided Design of Bisubstrate Inhibitors and Photoluminescent Probes for Protein Kinases of the PIM Family” (Molecules, 2021).

Protein sequences, listed by entry. Tags and fused reporters are not part of them.
UniProt P11309, whole entry: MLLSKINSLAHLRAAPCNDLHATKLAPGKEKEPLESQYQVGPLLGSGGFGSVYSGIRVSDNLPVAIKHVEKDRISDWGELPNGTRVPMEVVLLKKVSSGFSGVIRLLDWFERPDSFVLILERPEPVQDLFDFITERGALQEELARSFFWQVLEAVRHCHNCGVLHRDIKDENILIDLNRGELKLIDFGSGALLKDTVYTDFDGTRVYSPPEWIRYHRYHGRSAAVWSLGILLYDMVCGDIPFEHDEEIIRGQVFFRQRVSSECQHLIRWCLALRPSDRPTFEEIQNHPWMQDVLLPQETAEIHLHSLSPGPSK

Target: Pimtide

Question: With PIM-1 (from UniProt P11309) as the substance, how does the Kd read?
Answer: 58 nM
